{"source": "patent US6103709A", "about": "(priority 1998, dated 2000)", "key": {"[1]": {"test_system": "human leukemia cell", "details": "cited from earlier work"}, "[2]": {"test_system": "chloride channels in ROS 17/2.8 cells", "assay": "cells", "details": "read-out: concentration giving maximal promotion of anion currents", "description": "In each case, at least a 3-min period was allowed after the addition of the analog to the bath for currents to reach a stable amplitude value. […] Anion currents were isolated from inward Ba^2+ currents after blockade of Ca^2+ channels with 100 μM Cd^2+."}, "[3]": {"test_system": "prostate cancer cells", "details": "cited from earlier work"}}, "data": [{"molecule": "C=C1/C(=C\\C=C2/CCC[C@]3(C)[C@@H]([C@H](C)CCCC(C)(C)O)CC[C@@H]23)C[C@@H](O)C[C@@H]1O", "note": "[Analog C, 1α,25-dihydroxyvitamin D3, reference compound]", "values": [{"measurement": "human leukemia cell proliferation / differentiation", "setting": "[1]", "value": "effective inhibitor of human leukemia cell proliferation and as well a stimulator of the cell differentiation"}, {"measurement": "EC (maximal)", "setting": "[2]", "value": "0.0005 to 0.005", "unit": "µM"}, {"measurement": "prostate cancer cell proliferation / differentiation", "setting": "[3]", "value": "inhibition of proliferation as well a selective differentiation"}]}]}
